The values that follow come from patent US9035085B2, “Aryl ketone compounds and compositions for delivering active agents” (EMISPHERE TECHNOLOGIES, INC., priority 2004, dated 2015).

The conditions of this data set: oral dosing with human insulin alone (no delivery agent); previous experiments. As to the method:
Oral dosing (PO) compositions of delivery agent compound and human zinc insulin (minimum 26 IU/mg available from Calbiochem—Novabiochem Corp, La Jolla, Calif.) were prepared in deionized water. […] The solution was vortexed, then heated (about 37° C.) and sonicated. The pH was adjusted to about 7 to 8.5 with NaOH or HCl. […] About 1.25 mg insulin from an insulin stock solution (15 mg/ml made from 0.5409 g insulin and 18 ml deionized water, adjusting with HCl and NaOH to pH 8.15 and to obtain a clear solution using 40 ml concentrated HCl, 25 ml 10N NaOH and 50 ml 1N NaOH) was added to the solution and mixed by inverting.
The typical dosing and sampling protocols were as follows. […] A dosing group of five animals was administered one of the dosing solutions. […] The syringe was filled with dosing solution by drawing the solution through the catheter, which was then wiped dry. The catheter was placed down the esophagus leaving 1 cm of tubing past the incisors. The dosing solution was administered by pressing the syringe plunger.
The five values for each time point were averaged and the results plotted as serum insulin concentration versus time.

With human insulin, the “Serum human insulin levels” value was “no measurable levels”.
